The subject of this experiment is neuropathic pain caused by oxaliplatin in rats. As to the kind of experiment: Randall-Selitto pain thresholds in rats given repeated intraperitoneal oxaliplatin (chemo-induced neuropathic pain model). The settings on record: rats given oxaliplatin 2 mg/kg; gas/O2 (50%-50%) inhaled for 1 hour with each administration. How it is done: A preclinical study in rats was carried out.
In order to mimic the clinical use as closely as possible, a series of 8 intraperitoneal injections of oxaliplatin were given every 3 to 4 days, as illustrated in FIG. 2. This model is well known in the literature and gives an account of chemo-induced neuropathic pain.
The pain thresholds were evaluated by means of a Randall-Selitto device by applying an increasing pressure to the paw of the rat until the animal lets out a cry. The corresponding weight in grams is then noted (the Y-axis in FIG. 2). Thus, the earlier the animal cries out, for a low weight, the more pain it has.

As to `[N-]=[N+]=O` [N2O, nitrous oxide], the “hypersensitivity to pain (pain threshold curve versus control group A)” value is given as “no sign of hypersensitivity to pain”.

Values taken from patent US20130095194A1, “USE OF INHALED NITROUS OXIDE OR XENON FOR PREVENTING NEUROPATHIC PAIN CAUSED BY CANCER CHEMOTHERAPY” (L'Air Liquide, Société Anonyme pour I'Etude et …, priority 2011, published 2013).
